Values of other authors in US10251838B2, “Stereospecific lipids for locoregional therapy with long-term circulating stimuli-sensitive nanocarrier systems” (THERMOSOME GmbH, priority 2013, dated 2019).
Where two headings read alike, the source gives them in different places.

Conditions: dog model, cited from earlier work

In the case of `CO[C@@]12[C@H](COC(N)=O)C3=C(C(=O)C(C)=C(N)C3=O)N1C[C@@H]1N[C@@H]12` [mitomycin C], the “cases with sufficiently high (cytotoxic) concentrations” value (lamina propria) is given as 20% and the “cases with sufficiently high (cytotoxic) concentrations” value (tunica muscularis) is given as “less than 20%”.
